Test results published in paper PMC9321663, “The DevTox Germ Layer Reporter Platform: An Assay Adaptation of the Human Pluripotent Stem Cell Test” (Toxics, 2022).

Assays:
[1] = cited from earlier work
RUES2-GLR cells = experiment: DevTox GLR-Endo assay: decrease in total cell count, cytotoxicity (AEID 3098, CellCount_dn); settings: Table S2, 48 h exposure

Substance: D-Camphor
- Development Toxicant Classification ([1]; Table S2): Negative
- Classification ([1]; developmental toxicant classification (Teratogen / Non-Teratogen) of reference and training chemicals, ref DOI per chemical: 10.1093/toxsci/kft239, 10.1093/toxsci/kfaa014, 10.1177/026119290203000204, 10.1038/s41598-020-59542-x): Non-Teratogen
- DT Class. ([1]; developmental toxicant classification, chemicals common with quickPredict): Neg
- Cell Count ACC (RUES2-GLR cells): >200 µM
